These results are taken from PubChem BioAssay AID651699 (Sanford-Burnham Center for Chemical Genomics, 2012).

The chains behind the UniProt entries cited, without tags or fusion partners.
UniProt P61081, whole entry, looked up: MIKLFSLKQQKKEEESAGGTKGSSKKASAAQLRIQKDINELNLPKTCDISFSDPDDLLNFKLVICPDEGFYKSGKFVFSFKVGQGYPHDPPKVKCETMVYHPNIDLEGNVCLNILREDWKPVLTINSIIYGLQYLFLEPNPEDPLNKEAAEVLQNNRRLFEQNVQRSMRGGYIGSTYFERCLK
UniProt Q13564, whole entry, looked up: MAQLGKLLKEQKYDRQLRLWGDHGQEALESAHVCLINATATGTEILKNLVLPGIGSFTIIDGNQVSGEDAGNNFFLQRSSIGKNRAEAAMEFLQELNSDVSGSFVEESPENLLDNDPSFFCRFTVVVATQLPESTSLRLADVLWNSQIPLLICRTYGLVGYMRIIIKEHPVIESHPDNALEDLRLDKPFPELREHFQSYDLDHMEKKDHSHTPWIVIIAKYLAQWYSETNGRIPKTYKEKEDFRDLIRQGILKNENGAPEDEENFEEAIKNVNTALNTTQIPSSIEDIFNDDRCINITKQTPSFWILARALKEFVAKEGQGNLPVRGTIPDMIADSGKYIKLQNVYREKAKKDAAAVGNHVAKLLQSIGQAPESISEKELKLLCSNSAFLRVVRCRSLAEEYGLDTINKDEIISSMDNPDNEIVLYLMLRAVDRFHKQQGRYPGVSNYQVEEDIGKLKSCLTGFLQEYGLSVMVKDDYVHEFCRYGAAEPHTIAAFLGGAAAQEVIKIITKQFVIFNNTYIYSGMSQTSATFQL

For orientation: inhibition means the change of the read-out against control, counted positive when it falls.

The structures appear in SMILES notation. This is a selection; strong and weak results do not stand in their true shares. Activity calls are given as the source filed them. Rule as the data show it: active = inhibition above about 36%; inactive = the rest.

This assay has as its target NEDD8-conjugating enzyme Ubc12 (Homo sapiens) + NEDD8-activating enzyme E1 regulatory subunit (Homo sapiens) (UniProt P61081+Q13564). Put plainly: inhibitors of cullin neddylation, primary screen, biochemical, TR-FRET, uHTS, NAE and Ubc12 (AID 651699). Particulars: at 25 µM, stronger effect = higher value. (In TR-FRET formats the signal depends on donor and acceptor labels being close together.)
In the case of `CN1CCC(Nc2ccc(F)c(Cl)c2)CC1`, the inhibition is inactive: 2.95%.

On to `CCOc1ncccc1C(=O)NCC1(N2CCOCC2)CCCCC1`, for which the inhibition is inactive: -2.02%.

Turning to `CCCOc1ccc(C(=O)NCC2(N(C)C)CCCCC2)cc1`, the inhibition was inactive: -4.1%.

Regarding `O=c1[nH]c2ccccc2n1C1CCN(C(c2cc3ccccc3o2)c2nnnn2C2CCCC2)CC1` (stereo not drawn), the inhibition is inactive: -23.4%. The figure for `NN(c1ccccc1)C1CCN(CCc2ccccc2)CC1` is inactive: -1.08%; for `O=C(O)C1(Nc2ccccc2)CCN(Cc2ccccc2)CC1` it is inactive: -9.6%; for `CC(C)(C)OC(=O)N1CCC(Nc2ccccc2)CC1` it is inactive: 5.82%. Under `CCC(CO)(C(=O)OC1CN2CCC1CC2)c1ccccc1` (stereo not drawn) stands inactive: -0.39%; under `COc1cccc(C(=O)N(c2cc(C)cc(C)c2)C2CCN(C(=O)OC(C)(C)C)CC2)c1`, inactive: 1.31%; under `COc1cc(OC)cc(C(=O)NCC2(N3CCOCC3)CCCCC2)c1`, inactive: 3.84%. The figure for `COc1cccc(C(c2nnnn2C2CCCC2)N2CCC(n3c(=O)[nH]c4ccccc43)CC2)c1OC` (stereo not drawn) is inactive: 6.01%; for `CN1CCC(Nc2ccc(Cl)cc2)CC1` it is inactive: 2.29%. With `O=c1[nH]c2ccccc2n1C1CCN(C(c2ccnc3ccccc23)c2nnnn2C2CCCCC2)CC1` (stereo not drawn), the inhibition is inactive: -2.63%. The figure for `COc1cc(OC)cc(C(=O)NCC2(N3CCCCC3)CCCCC2)c1` is inactive: 11.3%; for `CCC(c1nnnn1C1CCCCC1)N1CCC(n2c(=O)[nH]c3ccccc32)CC1` (stereo not drawn) it is inactive: 4.28%; for `CC(=O)N(c1ccccc1)C1CCNCC1` it is inactive: 9.18%. As for `COc1cccc(C(c2nnnn2C2CCCCC2)N2CCC(n3c(=O)[nH]c4ccccc43)CC2)c1OC` (stereo not drawn), the inhibition is inactive: -6.69%.

Take `Cc1ccc(NC2(C#N)CCN(Cc3ccccc3)CC2)cc1`: the inhibition is inactive: 1.55%. Under `Fc1ccccc1NC1CCN(Cc2ccccc2)CC1` stands inactive: 0.57%; under `Cc1ccc(C(=O)NCC2(N3CCCCC3)CCCCC2)o1`, inactive: -0.1%.

As to `CC(C)(C)n1nnnc1C(c1ccnc2ccccc12)N1CCC(n2c(=O)[nH]c3ccccc32)CC1` (stereo not drawn), the inhibition is inactive: 11.6%. The figure for `CCN1CCC(Nc2cccc(F)c2)CC1` is inactive: 4.81%; for `COc1ccc(C(c2nnnn2C2CCCCC2)N2CCC(n3c(=O)[nH]c4ccccc43)CC2)cc1` (stereo not drawn) it is inactive: 6.03%. Under `Cc1ccccc1NC1(C#N)CCN(Cc2ccccc2)CC1` stands inactive: -3.44%. The figure for `Cn1c(=O)[nH]cc(N(CCCl)CCCl)c1=O` is inactive: 0.83%; for `CN(C)c1ccc(C(=O)NCC2(N3CCCCC3)CCCCC2)cc1` it is inactive: 2.39%; for `O=C(NCC1(N2CCCCC2)CCCCC1)c1ccco1` it is inactive: -18.6%. `CC(C)(C)OC(=O)N1CCC(N(C(=O)c2ccccc2)c2ccc(Cl)cc2)CC1`: the inhibition was inactive: -5.67%. Under `N#Cc1ccc(C(=O)NCC2(N3CCCCC3)CCCCC2)cc1` stands inactive: 0.54%.

With `Cc1cc(N(CCCl)CCCl)ccc1C=O`, the inhibition was inactive: -2.74%. In the case of `O=c1[nH]c2ccccc2n1C1CCN(C(c2ccccc2)c2nnnn2C2CCCC2)CC1` (stereo not drawn), the inhibition is inactive: -4.61%. Under `CCCN1CCC(Nc2cc(OC)cc(OC)c2)CC1` stands inactive: 17.4%. In the case of `c1ccc(CN2CCC(Nc3ccccc3)CC2)cc1`, the inhibition was inactive: -1.95%. `CN(C)C1(CNC(=O)c2cccc(C#N)c2)CCCCC1`: the inhibition was inactive: 0.12%.

For the compound `CC(C)(C)n1nnnc1C(c1cccc2ccccc12)N1CCC(n2c(=O)[nH]c3ccccc32)CC1` (stereo not drawn), the inhibition is inactive: 3.67%. With `O=C(NCC1(N2CCOCC2)CCCCC1)c1cc(Br)ccc1Cl`, the inhibition was inactive: 13.8%. Under `COc1cc(C(=O)NCC2(N3CCOCC3)CCCCC2)cc(OC)c1C` stands inactive: -18.8%; under `CCCCn1nnnc1C(c1ccccc1)N1CCC(n2c(=O)[nH]c3ccccc32)CC1` (stereo not drawn), inactive: -9.75%. The figure for `O=c1[nH]c2ccccc2n1C1CCN(C(c2ccnc3ccccc23)c2nnnn2C2CCCC2)CC1` (stereo not drawn) is inactive: -8.68%; for `COc1ccc(C(=O)NCC2(N3CCOCC3)CCCCC2)cc1OC` it is inactive: -1.77%; for `O=c1[nH]c2ccccc2n1C1CCN(C(c2cccs2)c2nnnn2C2CCCCC2)CC1` (stereo not drawn) it is inactive: -5.73%. On to `N/C(=N\O)c1c(N)no[n+]1[O-]`, for which the inhibition was inactive: -0.67%. The figure for `COc1cccc(C(c2nnnn2C(C)(C)C)N2CCC(n3c(=O)[nH]c4ccccc43)CC2)c1OC` (stereo not drawn) is inactive: -1.22%; for `CCOC(=O)N1CCC(Nc2ccc(C)cc2)CC1` it is inactive: -6.48%. `CCCCn1nnnc1C(c1cccc(OC)c1OC)N1CCC(n2c(=O)[nH]c3ccccc32)CC1` (stereo not drawn): the inhibition was inactive: 3.77%. For `O=c1[nH]c2ccccc2n1C1CCN(C(c2cccs2)c2nnnn2C2CCCC2)CC1` (stereo not drawn), the inhibition is inactive: -3.75%. Regarding `O=C(OC1CN2CCC1CC2)C1c2ccccc2C=Cc2ccccc21` (stereo not drawn), the inhibition was inactive: 24.2%.

In the case of `CN(C)c1cccc(C(=O)NCC2(N3CCCCC3)CCCCC2)c1`, the inhibition is inactive: 38.2%.

As to `COc1ccc(CN(CCCl)CCCl)cc1Cl`, the inhibition was inactive: -8.38%.

Take `CCCCn1nnnc1C(c1ccccc1OC(F)(F)F)N1CCC(n2c(=O)[nH]c3ccccc32)CC1` (stereo not drawn): the inhibition is inactive: 5%. The figure for `CC(C)c1ccc(NC2CCN(C(=O)OC(C)(C)C)CC2)cc1` is inactive: -4.06%; for `CCCCn1nnnc1C(c1ccnc2ccccc12)N1CCC(n2c(=O)[nH]c3ccccc32)CC1` (stereo not drawn) it is inactive: -19%; for `O=C(NCC1(N2CCOCC2)CCCCC1)c1cc(F)c(F)cc1Cl` it is inactive: -0.89%.

As for `CCC(c1nnnn1C(C)(C)C)N1CCC(n2c(=O)[nH]c3ccccc32)CC1` (stereo not drawn), the inhibition was inactive: -1.38%. Under `COc1cc(OC)c(C(=O)NCC2(N(C)C)CCCCC2)cc1OC` stands inactive: 7.76%; under `O=C(NCC1(N2CCCCC2)CCCCC1)c1cncc(Br)c1`, inactive: 2.27%; under `CN1CCC(Nc2cccc(F)c2)CC1`, inactive: 6.06%. The figure for `CCCOc1ccc(C(=O)NCC2(N(C)C)CCCCC2)cc1OC` is inactive: -1.12%; for `Cc1ccc(C(=O)NCC2(N(C)C)CCCCC2)o1` it is inactive: 10.8%. Regarding `COc1ccc(C(c2nnnn2C2CCCC2)N2CCC(n3c(=O)[nH]c4ccccc43)CC2)cc1` (stereo not drawn), the inhibition was inactive: -1.59%. Under `O=C(NCC1(N2CCCCC2)CCCCC1)c1ccc(OC(F)F)cc1` stands inactive: -9.56%.

Take `CC(C)(C)n1nnnc1C(c1ccccc1OC(F)(F)F)N1CCC(n2c(=O)[nH]c3ccccc32)CC1` (stereo not drawn): the inhibition was inactive: 2.11%.

Consider `O=C(NCC1(N2CCCCC2)CCCCC1)c1cccc([N+](=O)[O-])c1`, for which the inhibition was inactive: -1.83%. With `CSc1ccc(C(=O)NCC2(N3CCOCC3)CCCCC2)cc1`, the inhibition was inactive: -2.63%.

For `N#CC1(Nc2ccccc2)CCN(CCc2ccccc2)CC1`, the inhibition is inactive: -2.35%. In the case of `O=c1[nH]c2ccccc2n1C1CCN(C(c2ccccc2OC(F)(F)F)c2nnnn2C2CCCC2)CC1` (stereo not drawn), the inhibition was inactive: -6.56%. On to `CCN1CCC(Nc2ccc(Cl)cc2)CC1`, for which the inhibition is inactive: 1.63%. Under `O=C(NCC1(N2CCCCC2)CCCCC1)c1cccc(C(F)(F)F)c1` stands inactive: 1.65%; under `CCCCn1nnnc1C(c1cccc2ccccc12)N1CCC(n2c(=O)[nH]c3ccccc32)CC1` (stereo not drawn), inactive: 1.37%; under `CC(C)c1ccc(C(=O)NCC2(N3CCOCC3)CCCCC2)cc1`, inactive: -0.48%.

Take `COc1ccc(NC2CCN(C(=O)OC(C)(C)C)CC2)cc1`: the inhibition was inactive: -3.1%. Under `CN1CCN(CCOC(=O)C(O)(c2ccccc2)c2ccccc2)CC1` stands inactive: 0.43%; under `O=C(NCC1(N2CCOCC2)CCCCC1)c1cc(=O)[nH]c2ccccc12`, inactive: 17.2%. On to `COc1cc(C(=O)NCC2(N3CCCCC3)CCCCC2)ccc1OC(F)F`, for which the inhibition is inactive: 3.66%. Consider `CCOc1ccc(C)cc1CN(CCCl)CCCl`, for which the inhibition was inactive: -0.4%. The figure for `O=C1CCN(Cc2ccccc2)CC1` is inactive: 0.31%; for `CC(C)(C)n1nnnc1C(c1ccccc1)N1CCC(n2c(=O)[nH]c3ccccc32)CC1` (stereo not drawn) it is inactive: 3.57%. The figure for `CCOC(=O)N1CCC(Nc2ccc(F)cc2)CC1` is inactive: -3.25%. Under `COc1ccc(NC2CCN(CCc3ccccc3)CC2)c(OC)c1` stands inactive: -14.4%; under `O=C(NCC1(N2CCCCC2)CCCCC1)c1ccc(F)cc1`, inactive: -10.6%; under `CCCCOc1ccc(C(=O)NCC2(N3CCOCC3)CCCCC2)cc1`, inactive: 0.23%. Take `CCCCn1nnnc1C(c1cc2ccccc2o1)N1CCC(n2c(=O)[nH]c3ccccc32)CC1` (stereo not drawn): the inhibition was inactive: -2.95%. With `O=P1(N(CCCl)CCCl)SCCCS1`, the inhibition was inactive: 2.06%. Under `O=c1[nH]c2ccccc2n1C1CCN(C(c2ccccc2)c2nnnn2C2CCCCC2)CC1` (stereo not drawn) stands inactive: 0.44%.

With `O=c1[nH]c2ccccc2n1C1CCN(C(c2cccc3ccccc23)c2nnnn2C2CCCC2)CC1` (stereo not drawn), the inhibition is inactive: -7.6%. On to `COc1cc(C(=O)NCC2(N(C)C)CCCCC2)ccc1OC(F)F`, for which the inhibition is inactive: 4.53%. The figure for `CCOC(=O)N1CCC(Nc2cccc(C)c2)CC1` is inactive: -1.22%; for `CCCCn1nnnc1C(c1cccs1)N1CCC(n2c(=O)[nH]c3ccccc32)CC1` (stereo not drawn) it is inactive: 6.83%. On to `O=C(NCC1(N2CCCCC2)CCCCC1)c1cccs1`, for which the inhibition is inactive: 1.04%. With `CCCCn1nnnc1C(CC)N1CCC(n2c(=O)[nH]c3ccccc32)CC1` (stereo not drawn), the inhibition is inactive: 7.43%. The figure for `O=C(NCC1(N2CCCCC2)CCCCC1)c1ccc(=O)[nH]c1` is inactive: -3.1%; for `CCC(c1nnnn1C1CCCC1)N1CCC(n2c(=O)[nH]c3ccccc32)CC1` (stereo not drawn) it is inactive: 0.41%; for `CC(C)(C)OC(=O)N1CCC(N(C(=O)c2ccccc2)c2ccc(F)cc2)CC1` it is inactive: -1.62%.

As to `COc1ccc(C(=O)NCC2(N3CCCCC3)CCCCC2)c(OC)c1OC`, the inhibition was inactive: 7.76%. Under `COc1ccc(C(=O)NCC2(N3CCCCC3)CCCCC2)cc1` stands inactive: -3.58%; under `Cc1cccc(NC2(C#N)CCN(Cc3ccccc3)CC2)c1`, inactive: -2.3%; under `CSc1ccccc1C(=O)NCC1(N2CCCCC2)CCCCC1`, inactive: -0.33%.

As to `O=C(NCC1(N2CCOCC2)CCCCC1)c1cc2ccccc2o1`, the inhibition was inactive: 9.38%. Under `Cc1cc(C)cc(N(C(=O)c2ccccc2)C2CCN(C(=O)OC(C)(C)C)CC2)c1` stands inactive: 3.69%; under `O=c1[nH]c2ccccc2n1C1CCN(C(c2ccccc2OC(F)(F)F)c2nnnn2C2CCCCC2)CC1` (stereo not drawn), inactive: -0.56%. Under `O=C(NCC1(N2CCCCC2)CCCCC1)c1ccc(Cl)nc1` stands inactive: 16%; under `CCCCn1nnnc1C(c1ccc(OC)cc1)N1CCC(n2c(=O)[nH]c3ccccc32)CC1` (stereo not drawn), inactive: 1.84%. The figure for `CCOC(=O)N1CCC(Nc2ccc(OC)cc2)CC1` is inactive: -2.67%. With `COc1ccc(Cl)cc1C(=O)NCC1(N2CCOCC2)CCCCC1`, the inhibition is inactive: 0.84%. Under `O=c1[nH]c2ccccc2n1C1CCN(C(c2cc3ccccc3o2)c2nnnn2C2CCCCC2)CC1` (stereo not drawn) stands inactive: -23.1%; under `O=C(OC1CN2CCC1CC2)C1c2ccccc2Oc2ccccc21` (stereo not drawn), inactive: -1.37%; under `O=C(NCC1(N2CCCCC2)CCCCC1)c1ccc(Cl)s1`, inactive: -8.79%. Under `N#CC1(Nc2ccccc2)CCN(Cc2ccccc2)CC1` stands inactive: -1.28%.
